Target: Histamine H3 receptor (Homo sapiens, UniProt Q9Y5N1)
Test: Antagonist activity at human H3 receptor by TR-FRET assay
Type: functional

Sequences of proteins named here, by UniProt entry; tags and fusion partners are left off. A change or cut given only in a name is not applied to a line headed by its entry.
UniProt Q9Y5N1: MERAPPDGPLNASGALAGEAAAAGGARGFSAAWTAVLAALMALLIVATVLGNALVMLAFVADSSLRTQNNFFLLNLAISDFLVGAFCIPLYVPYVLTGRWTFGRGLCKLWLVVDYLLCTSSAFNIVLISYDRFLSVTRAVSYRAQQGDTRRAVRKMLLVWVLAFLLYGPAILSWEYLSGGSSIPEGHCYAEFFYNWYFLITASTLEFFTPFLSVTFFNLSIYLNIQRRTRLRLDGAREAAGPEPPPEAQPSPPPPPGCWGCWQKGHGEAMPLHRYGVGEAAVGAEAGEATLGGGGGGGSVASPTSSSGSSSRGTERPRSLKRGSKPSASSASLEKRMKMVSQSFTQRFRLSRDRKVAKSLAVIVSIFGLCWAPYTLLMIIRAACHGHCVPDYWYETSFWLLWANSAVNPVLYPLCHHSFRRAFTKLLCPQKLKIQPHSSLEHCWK

In the case of `NC(=NCc1ccc(Cl)cc1)SCCCc1cnc[nH]1` [CLOBENPROPIT], the IC50 is reported as 1.32 nM.
